Where two headings read alike, the source gives them in different places.

This experiment deals with β2AR mutant K97^2.68C (Homo sapiens, UniProt P07550, K97C). Description: BRET biosensor β-arrestin 2 recruitment (enhanced bystander CAAX) after covalent binding, washing, propranolol block and photoswitching. Type of experiment: cell-based. On the set-up: expressed in transfected cells; host or cells: HEK-293T. As to conditions: for Emax: relative to norepinephrine. The source says:
To assess covalent binding to the receptor and subsequent switching of the bound isomer within the binding site, we developed a bioluminescence resonance energy transfer (BRET)‐based biosensor system expressing an RLuc‐tagged β‐arrestin 2 and GFP‐tagged enhanced bystander protein CAAX in HEK293T cells. The assay allowed us to determine receptor‐stimulated recruitment of β‐arrestin to β2AR and the bystander protein CAAX, both located in the cell membrane.^[ [30] ^] To facilitate covalent binding, 1 µM of the Z‐isomers of 1–9 were pre‐incubated with cells for 90 min. After washing to remove all reversibly‐bound ligands and blocking with propranolol, activation properties were determined following a 15‐min incubation. To identify specific agonist effects of the Z‐ and E‐isomers, cells were treated in two different ways after the blocking step. Specifically, half of the cells were kept in the dark to preserve the Z‐isomer, while the second half was irradiated with light at 528 nm to induce switching from the Z‐ to the E‐isomer. […]
resonance energy transfer (HTRF) was determined using the CLARIOstar® plate reader (BMG, Ortenberg, Germany) (Filter set: donor: 620-10 nm; acceptor: 665 -10 nm). Data was analyzed by calculating the ratio of acceptor emission to donor emission. FRET ratio was normalized to the effect […]
the equation for non-linear regression (dose-response curves (four parameters)). Mean values are the result of three to five independent experiments each done in duplicates.
Bioluminescence Resonance Energy Transfer (BRET) assay for recruitment of β −arrestin For BRET assays microplates were coated with poly-D-Lysin (Sigma- Aldrich, Taufkirchen, Germany; MW: 70,000-150,000, 0.1 mg/mL aqueous solution) to improve cell adhesion. HEK-293T cells were transiently transfected applying the PEI reagent as described above. Determination of receptor mediated β -arrestin recruitment was performed by addition of 1 µM of test compound to the cells followed by incubatio n fo r 90 min. Preincubation was terminated by removing the incubation solution followed by a washing step with HBSS buffer. Buffer containing 10 µM pro prano lol was added to block all free binding sites. One half of the wells were kept in the dark, the second half was irradiated at 5 28 nm fo r 1 20 s to enable the switching of the Z -isomer to the E -isomer. Incubation was continued for 10 min and 3 µM of coelenterazine 400a was added for further 5 min. All incubation steps were […]
buffer to derive reference values for normalization. BRET was monitored on a Clariostar plate reader (BMG, Ortenberg, Germany) with the appropriate filter sets (donor 410/80 nm , accepto r 515/ 30 nm ) and was calculated as the ratio of acceptor emission to donor emission. […] BR ET rat io w as […]
values are the result of 3-12 independent experiments each done in quadruplicates. Significance of Emax after switching the test compound from the Z - to the E -i so me r and from E to Z was analyzed by paired t-test in Prism 10.2. The threshold for significance was set as 99% confidence interval an d […]
2.1. Biological Characterization
2.1.1. IP-One Assay on Functional Activity of the Photoswitches 1-9 at the
Functional activity of the photoswitches 1-9 were determined in the E- and Z-isomer applying an IP accumulation assay.[1] HEK 293T cells were transiently co-transfected with the plasmids of the human β 2 receptor and the hybrid G protein Gαqs. […]
compounds in the in the range from 70 -108 % (Figure 4, Table S1). The BI-167107 derivatives 3 -6, 8, […]
Figure S38. Evaluation of recepto r activation for norepine phr ine a nd ep ine phr ine at t he β 2 wt and the mutan t β 2 K972.68C.
An IP accumulation assay in HEK293T cells transi ent ly transf ected with β 2 wt or β 2 K972.68C and the hybri d G-prote in Gαqs was conducted to get dose- respo nse curves as mea n from 10-14 indivi dual e xp erime nts with β 2 wt and 5-6 si ngle […]
Background: In BRET a luciferase serves as donor, and the signal depends on an acceptor being close.

The mark [1] stands for this setting: 1 µM Z-isomer pre-incubated 90 min, washed, propranolol, kept in dark or irradiated at 528 nm, range, read-out: Emax.
[2] abbreviates: covalently bound Z-isomer (1 µM, 90 min, washed, propranolol, kept in dark), read-out: Emax.

Take `Cc1nn(CCCCCSSCCN)c(C)c1/N=N/c1ccc(CCNCC(O)c2ccc(O)c3c2OCC(=O)N3)cc1` (racemic) [Compound E-6]: where the note is “E to Z, irradiation at 365 nm, paired analysis, 6 experiments”, the “ΔE (efficacy increase)” value is 20%.
`Cc1nn(CCCSSCCN(C)C)c(C)c1/N=N/c1ccc(CCNC[C@H](O)c2ccc(O)c(O)c2)cc1` [Compound 2]: the Emax (commonly the maximal effect, on the per cent scale that the assay sets) under setting [1] fell in the range of 2 to 19%.
For `Cc1nn(CCN2C(=O)C=CC2=O)c(C)c1/N=N/c1ccc(CCNC[C@H](O)c2ccc(O)c(O)c2)cc1` [Compound 7], the maximal response (Emax) under setting [1] is 2 to 19%.
In the case of `Cc1nn(CCSSCCN(C)C)c(C)c1/N=N/c1ccc(CCNC[C@H](O)c2ccc(O)c(O)c2)cc1` [Compound 1, (R,E)-4-(2-((4-((1-(2-((2-(Dimethylamino)ethyl)disulfaneyl)ethyl)-3,5-dimethyl-1H-pyrazol-4-yl)diazenyl)phenethyl)amino)-1-hydroxyethyl)benzene-1,2-diol], the maximal response (Emax) under setting [1] fell in the range of 2 to 19%.
For the compound `Cc1nn(CCCCSSCCN)c(C)c1/N=N/c1ccc(CCNCC(O)c2ccc(O)c3c2OCC(=O)N3)cc1` (stereo not drawn) [Compound 5], the Emax under setting [2] worked out at 52%.
In the case of `Cc1nn(CCCCCSSCCN)c(C)c1/N=N\c1ccc(CCNCC(O)c2ccc(O)c3c2OCC(=O)N3)cc1` (racemic) [Compound Z-6], for the setting “covalently bound Z-isomer (1 µM, 90 min, washed, propranolol, kept in dark)”, the Emax is listed as 51%. Besides, the “reduction of receptor activation” value (covalently bound Z-isomer irradiated at 528 nm (Z to E), paired analysis) is reported as 16%.
Regarding `Cc1nn(CCCCCSSCCN)c(C)c1/N=N/c1ccc(CCNCC(O)c2ccc(O)c3c2OCC(=O)N3)cc1` (stereo not drawn) [Compound 6], the Emax runs as follows: (E-isomer formed from covalently bound Z-isomer by irradiation at 528 nm, read-out: Emax) 38%; under setting [2], 51%.

The record behind these values is publication PMC12144893, “Synthesis and Characterization of Photoswitchable Covalent Ligands for the β2‐Adrenoceptor” (Angewandte Chemie (International Ed. in English), 2025).
